Source: patent US7510847B2, “Kidney-specific urate transporter and gene thereof” (Human Cell Systems, Inc., priority 2001, dated 2009)

By UniProt entry, the sequences of proteins in these tests, tags left out. Where a name states a change or a piece, a line headed by the entry shows the natural chain unless it says otherwise.
UniProt Q96S37: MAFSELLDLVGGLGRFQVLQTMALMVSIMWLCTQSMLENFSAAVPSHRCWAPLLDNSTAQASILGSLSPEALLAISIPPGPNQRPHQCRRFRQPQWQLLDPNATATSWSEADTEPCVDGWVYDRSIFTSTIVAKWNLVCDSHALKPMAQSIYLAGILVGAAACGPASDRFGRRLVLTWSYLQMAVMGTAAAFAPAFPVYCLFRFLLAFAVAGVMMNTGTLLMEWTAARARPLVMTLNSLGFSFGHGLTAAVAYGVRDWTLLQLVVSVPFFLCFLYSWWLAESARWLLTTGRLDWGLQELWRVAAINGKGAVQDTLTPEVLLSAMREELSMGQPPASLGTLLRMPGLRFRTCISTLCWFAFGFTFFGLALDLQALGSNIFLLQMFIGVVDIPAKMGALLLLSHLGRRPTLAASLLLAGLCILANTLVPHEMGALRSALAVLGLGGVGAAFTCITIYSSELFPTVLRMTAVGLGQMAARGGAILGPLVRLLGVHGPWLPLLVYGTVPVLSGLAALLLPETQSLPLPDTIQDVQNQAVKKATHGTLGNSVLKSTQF

What was measured:
URAT1 [1] = molecular target: T1, URAT1 (Homo sapiens, UniProt Q96S37); assay: uric acid uptake by URAT1 oocytes after preincubation with or pre-injection of organic acids (exchange substrate study); format: cell-based; design: expressed in transfected cells; host or cells: Xenopus laevis oocytes ("platanna") injected with URAT1 cRNA
Description: Therefore, 100 nl of 100 mM non-radiolabeled L-lactic acid was precedently injected in the oocytes, and then the uptake of the radiolabeled uric acid was observed (FIG. 7).

URAT1 [2] = molecular target: T1, URAT1; assay: inhibition of [14C] uric acid uptake by oocytes injected with URAT1 cRNA; conditions: pH 7.4

ketoglutaric acid
uptake of radiolabeled uric acid after precedent injection of organic acid into oocytes (URAT1 [1]): no change
uptake of uric acid after preincubation of oocytes with organic acid (URAT1 [1]): not facilitated
inhibition of transport/uptake of [14C] uric acid by URAT1 (URAT1 [2]): did not inhibit
